Measurements as given in US10258598B2, “Compounds for use in the prevention or treatment of cancer” ([…], priority 2014, dated 2019).

Amino acid sequences for entries named in this document (tags omitted).
UniProt P19643, whole entry: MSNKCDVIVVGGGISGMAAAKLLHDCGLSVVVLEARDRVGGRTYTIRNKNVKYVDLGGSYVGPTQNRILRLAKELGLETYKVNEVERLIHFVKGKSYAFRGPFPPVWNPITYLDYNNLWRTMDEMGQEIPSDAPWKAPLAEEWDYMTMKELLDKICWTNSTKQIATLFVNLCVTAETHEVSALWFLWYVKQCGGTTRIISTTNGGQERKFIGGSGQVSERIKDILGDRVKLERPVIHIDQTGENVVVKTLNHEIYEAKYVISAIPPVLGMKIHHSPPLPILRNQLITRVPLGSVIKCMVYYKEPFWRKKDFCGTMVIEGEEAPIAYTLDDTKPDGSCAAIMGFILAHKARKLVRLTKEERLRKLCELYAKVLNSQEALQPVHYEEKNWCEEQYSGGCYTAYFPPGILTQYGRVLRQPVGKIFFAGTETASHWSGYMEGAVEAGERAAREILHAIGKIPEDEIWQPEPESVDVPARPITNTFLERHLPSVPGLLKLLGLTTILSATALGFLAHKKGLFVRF

What was measured:
Daoy HTB-186 cell line = assay: MTT proliferation assay, Daoy medulloblastoma cells; format: cell-based, human; details: 10^-13 or 10^-8 M combined with temozolomide, Cisplatin, etoposide or Vincristin, 72 hours
Procedure: (§1) Human medulloblastoma cell line, Daoy was purchased from ATCCC, UW-228 was obtained from the courtesy of Professor Silber (University of Washington, Seattle, Wash., USA).
(§2) Daoy and UW-228-2 cell lines were maintained in culture medium (each 500 ml Minimum Essential Medium Eagle, Alpha Modification (M8042, Sigma, St Louis, USA) with 50 ml FCS (Gibco), 40 mg Gentamicin (Sandoz), 5 ml sodium-pyruvate (S8636, Sigma, St Louis, USA), 5 ml non-essential-amino acid solution (M7145, Sigma, St Louis, USA), 10 ml L-glutamin (Sigma, St Louis, USA) at 37° C. in humified 5% CO2.
(§3) In each well 3×10^3 Daoy or UW-228-2 cells were seeded in 96-well plates (Sarstedt), solved in 100 µl of its own medium with 10% FCS. 24 hours after seeding, cells were treated for 72 hours by drugs solved in further 100 μl medium. […]
(§4) Cell proliferation was evaluated by MTT (3-(4,5-Dimethylthiazol-2-yl)-2,5-diphenyltetrazolium bromide) assay (M5655, Sigma) after 72-hour treatment by the method described in manufacturer's protocol.

MAO-B = MAO-B (Rattus norvegicus, UniProt P19643); details: dose used in two earlier longevity studies; cited from earlier work
UW-228-2 cell line = assay: MTT proliferation assay, UW-228-2 medulloblastoma cells; format: cell-based, human; details: 10^-13 or 10^-8 M combined with temozolomide, Cisplatin, etoposide or Vincristin, 72 hours
Procedure: as §1, §2, §3, §4

C#CCN(C)[C@H](C)Cc1ccccc1 [(−)-Deprenyl, (R)—N-methyl-N-(1-phenylpropan-2-yl)prop-2-yn-1-amine]
effectiveness of tumor-cell proliferation inhibiting agents in combination (Daoy HTB-186 cell line): did not change the effectiveness
dose which completely blocks MAO-B activity in the brain (MAO-B): 0.25 mg/kg
effectiveness of tumor-cell proliferation inhibiting agents in combination (UW-228-2 cell line): did not change the effectiveness
